The target in test [1] is T1, Human immunodeficiency virus type 1 integrase (Human immunodeficiency virus 1, UniProt Q7ZJM1). In words: Inhibitory effect on strand transfer of proximal DNA into host DNA in an extracellular HIV-1 integrase assay in experiment 2.
For test [2], the target named is T1, Human immunodeficiency virus type 1 integrase.
The target is the same in test [3]. In words: Inhibitory effect on strand transfer of proximal DNA into host DNA in an extracellular HIV-1 integrase assay in experiment 1.

The structures appear in SMILES notation.

The IC50 is the concentration at which inhibition is half-maximal. Low readings indicate inhibition by little substance, high ones a need for much substance. Turning to `O=C(O)C(=O)/C=C(\O)c1ccccc1`, the IC50 in test [1] was 25 µM; in test [2], more than 100 µM; in test [3], 24.2 µM.

The values are drawn from ChEMBL document CHEMBL1135511, “Structure activity of 3-aryl-1,3-diketo-containing compounds as HIV-1 integrase inhibitors” (J Med Chem, 2002).
